Laboratory results taken from patent publication US20180369195A1, “COMBINATION THERAPY FOR TREATMENT OF MELANOMA” (The Regents of the University of California, priority 2015, published 2018).

Protein sequences, listed by entry. Tags and fused reporters are not part of them.
UniProt P15056, whole entry V600E: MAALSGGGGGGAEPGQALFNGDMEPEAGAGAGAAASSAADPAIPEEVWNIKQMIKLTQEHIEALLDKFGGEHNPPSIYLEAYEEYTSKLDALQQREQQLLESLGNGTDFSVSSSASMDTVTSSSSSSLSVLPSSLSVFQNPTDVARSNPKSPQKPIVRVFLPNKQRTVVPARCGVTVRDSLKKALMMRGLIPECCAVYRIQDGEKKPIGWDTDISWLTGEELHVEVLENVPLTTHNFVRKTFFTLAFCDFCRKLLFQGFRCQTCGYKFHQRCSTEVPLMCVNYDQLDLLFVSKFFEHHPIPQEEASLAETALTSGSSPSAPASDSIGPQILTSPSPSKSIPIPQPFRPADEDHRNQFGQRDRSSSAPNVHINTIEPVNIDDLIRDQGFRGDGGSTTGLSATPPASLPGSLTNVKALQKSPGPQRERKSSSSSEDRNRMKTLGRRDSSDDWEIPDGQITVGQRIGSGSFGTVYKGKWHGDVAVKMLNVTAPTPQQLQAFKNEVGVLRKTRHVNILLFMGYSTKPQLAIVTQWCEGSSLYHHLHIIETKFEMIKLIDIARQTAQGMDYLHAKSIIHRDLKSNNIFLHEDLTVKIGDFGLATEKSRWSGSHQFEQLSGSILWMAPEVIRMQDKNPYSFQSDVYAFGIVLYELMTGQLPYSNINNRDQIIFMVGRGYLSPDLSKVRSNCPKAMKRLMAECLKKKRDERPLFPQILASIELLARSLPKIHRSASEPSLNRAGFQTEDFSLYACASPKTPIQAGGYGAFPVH
UniProt P15056, whole entry: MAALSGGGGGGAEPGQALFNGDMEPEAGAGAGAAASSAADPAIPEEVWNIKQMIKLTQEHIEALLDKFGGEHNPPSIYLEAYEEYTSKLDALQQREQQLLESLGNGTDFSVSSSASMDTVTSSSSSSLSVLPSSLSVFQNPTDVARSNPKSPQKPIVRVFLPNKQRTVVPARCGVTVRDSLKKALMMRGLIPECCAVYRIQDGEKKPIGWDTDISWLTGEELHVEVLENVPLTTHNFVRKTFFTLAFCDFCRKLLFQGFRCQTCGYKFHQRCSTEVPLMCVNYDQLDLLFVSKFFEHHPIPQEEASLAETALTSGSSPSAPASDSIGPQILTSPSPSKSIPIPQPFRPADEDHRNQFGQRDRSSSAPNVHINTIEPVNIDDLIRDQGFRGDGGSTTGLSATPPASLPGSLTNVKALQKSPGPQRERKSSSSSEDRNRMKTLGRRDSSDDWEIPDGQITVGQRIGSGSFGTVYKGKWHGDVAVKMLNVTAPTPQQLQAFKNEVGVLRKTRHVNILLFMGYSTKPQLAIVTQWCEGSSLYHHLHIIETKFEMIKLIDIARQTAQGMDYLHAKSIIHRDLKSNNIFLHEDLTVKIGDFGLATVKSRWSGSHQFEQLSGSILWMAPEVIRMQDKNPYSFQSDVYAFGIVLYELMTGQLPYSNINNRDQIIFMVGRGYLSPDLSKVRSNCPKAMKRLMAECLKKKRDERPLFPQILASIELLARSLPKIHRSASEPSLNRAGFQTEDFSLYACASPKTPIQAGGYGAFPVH

Columns and labels:
[1] = target: T1, BRAF-V600E (Homo sapiens, UniProt P15056, V600E); assay: BRAF kinase assay on BRAF immunoprecipitated from pretreated G-361 cells; format: biochemical; settings: G-361 cells treated 48 hours; 200 μM or 400 μM I3C, 10 μM Vemurafenib
T1 construct: BRAF-V600E was immunoprecipitated from untreated G-361 cells and incubated in vitro; endogenous in cells; host or cells: G-361 human melanoma cells (ATCC)
Protocol: (§1) BRAF was pulled down from the cell lysates using anti-BRAF antibodies bound to protein G-coupled Sepharose beads, while IgG was used as a negative control. Post-immunoprecipitation supernatants were probed with anti BRAF antibody by western blots to determine pull-down efficiency. […] The reactions were terminated by adding 4× sodium dodecyl sulfate (SDS) sample buffer and boiling the mixture at 100° C. for 5 min. The samples were then electrophoresed, immunoblotted and probed for relative protein levels of phosphorylated MEK and total MEK to assess the kinase activity of the immunoprecipitated BRAF.

[2] = target: T2, wild type BRAF (Homo sapiens, UniProt P15056); assay: In vitro BRAF kinase assay, in-vitro treated wild type BRAF from SK-MEL-2 cells; format: biochemical; settings: pre-incubated 2 hours; 200 μM or 400 μM I3C, 10 μM Vemurafenib
T2 construct: Wild type BRAF was immunoprecipitated from SK-MEL-2 melanoma cells; endogenous in cells; host or cells: SK-MEL-2 human melanoma cells (ATCC)
Protocol: as §1

## Vemurafenib [reference compound]
[1]
  BRAF-V600E enzymatic activity (phosphorylated MEK) after cellular treatment: significantly inhibited BRAF-V600E enzymatic activity
[2]
  wild type BRAF enzymatic activity, direct in vitro incubation: no effect
